By UniProt entry, the sequences of proteins in these tests, tags left out.
UniProt Q76JU9, whole entry: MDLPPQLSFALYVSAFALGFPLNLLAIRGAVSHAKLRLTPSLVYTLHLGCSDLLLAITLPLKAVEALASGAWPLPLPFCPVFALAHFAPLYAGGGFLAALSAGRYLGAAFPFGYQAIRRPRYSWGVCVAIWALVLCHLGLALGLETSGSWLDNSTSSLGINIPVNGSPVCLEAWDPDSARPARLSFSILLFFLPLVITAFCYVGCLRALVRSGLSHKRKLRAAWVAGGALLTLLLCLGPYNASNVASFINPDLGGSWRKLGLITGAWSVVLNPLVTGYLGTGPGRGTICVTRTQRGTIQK

According to PMC5917010, “Structural basis for GPR40 allosteric agonism and incretin stimulation” (Nature Communications, 2018):

Target: Mouse GPR40 (Mus musculus, UniProt Q76JU9)
Experiment: Mouse GPR40 b-arrestin
Assay type: cell-based

Cc1cc(OCCCS(C)(=O)=O)cc(C)c1-c1cccc(COc2ccc3c(c2)OC[C@H]3CC(=O)O)c1 [TAK-875]
Emax: 117%
